Laboratory results reported in patent US4180506A, “6β-Bromo penicillanic acid” (priority 1978, dated 1979).

System: Vibrio percolans MB-1272
Experiment: Bilayer agar diffusion test, potentiation of Pen G in the presence of penicillinase
Format: cell-based

CC1(C)S[C@@H]2C(Br)C(=O)N2[C@H]1C(=O)O (stereo partly drawn)
Zone of inhibition, Antibiotic Alone (0.125 μg/ml): 0 mm | Zone of inhibition, Antibiotic + Penase (0.125 μg/ml, Penase 10^4 units/ml): 0 mm | Zone of inhibition, Antibiotic + Penase + Pen G (0.125 μg/ml, Penase 10^4 units/ml, Pen G 5 μg/ml): 0 mm | Zone of inhibition, Antibiotic Alone (0.25 μg/ml): 0 mm | Zone of inhibition, Antibiotic + Penase (0.25 μg/ml, Penase 10^4 units/ml): 0 mm | Zone of inhibition, Antibiotic + Penase + Pen G (0.25 μg/ml, Penase 10^4 units/ml, Pen G 5 μg/ml): 15 mm | Zone of inhibition, Antibiotic Alone (0.5 μg/ml): 0 mm | Zone of inhibition, Antibiotic + Penase (0.5 μg/ml, Penase 10^4 units/ml): 0 mm | Zone of inhibition, Antibiotic + Penase + Pen G (0.5 μg/ml, Penase 10^4 units/ml, Pen G 5 μg/ml): 23 mm | Zone of inhibition, Antibiotic Alone (1 μg/ml): 0 mm | Zone of inhibition, Antibiotic + Penase (1 μg/ml, Penase 10^4 units/ml): 0 mm | Zone of inhibition, Antibiotic + Penase + Pen G (1 μg/ml, Penase 10^4 units/ml, Pen G 5 μg/ml): 26 mm | Zone of inhibition, Antibiotic Alone (2 μg/ml): 0 mm | Zone of inhibition, Antibiotic + Penase (2 μg/ml, Penase 10^4 units/ml): 0 mm | Zone of inhibition, Antibiotic + Penase + Pen G (2 μg/ml, Penase 10^4 units/ml, Pen G 5 μg/ml): 31 mm | Zone of inhibition, Antibiotic Alone (4 μg/ml): 0 mm | Zone of inhibition, Antibiotic + Penase (4 μg/ml, Penase 10^4 units/ml): 0 mm | Zone of inhibition, Antibiotic + Penase + Pen G (4 μg/ml, Penase 10^4 units/ml, Pen G 5 μg/ml): 37 mm | Zone of inhibition, Antibiotic Alone (8 μg/ml): 0 mm | Zone of inhibition, Antibiotic + Penase (8 μg/ml, Penase 10^4 units/ml): 0 mm | Zone of inhibition, Antibiotic Alone (16 μg/ml): 12 mm | Zone of inhibition, Antibiotic + Penase (16 μg/ml, Penase 10^4 units/ml): 11 mm | Zone of inhibition, Antibiotic Alone (31 μg/ml): 23 mm | Zone of inhibition, Antibiotic + Penase (31 μg/ml, Penase 10^4 units/ml): 24 mm | Concentration required to produce a zone of inhibition in the presence of Pen G and Penase (Pen G 5 μg/ml, Penase 10^4 units/ml): 0.25 µg/mL | Potentiation of benzylpenicillin (Pen G) activity (subinhibitory concentrations, penicillinase 10^4 units/ml): markedly potentiated | Synergistic effect greater than clavulanic acid control, weight basis (vs clavulanic acid, with Pen G and penicillinase 10^4 units/ml): approximately 64 fold
